Source: US6710048B2, “Pyrazine derivatives as modulators of tyrosine kinases” (Ortho-McNeil Pharmaceutical, Inc., priority 2000, dated 2004)

Chains of the proteins cited; added tags and fusions are not shown. Residues count along the entry.
UniProt P06493, whole entry: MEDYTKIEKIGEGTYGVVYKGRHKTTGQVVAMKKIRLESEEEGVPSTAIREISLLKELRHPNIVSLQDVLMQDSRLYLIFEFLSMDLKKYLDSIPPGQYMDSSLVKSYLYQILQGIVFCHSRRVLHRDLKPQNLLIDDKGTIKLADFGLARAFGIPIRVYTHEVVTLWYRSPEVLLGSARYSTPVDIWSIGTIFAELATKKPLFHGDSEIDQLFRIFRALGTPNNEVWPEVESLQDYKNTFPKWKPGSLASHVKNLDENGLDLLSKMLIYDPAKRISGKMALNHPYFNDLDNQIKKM
UniProt O08775, 786-1343 limits assumed: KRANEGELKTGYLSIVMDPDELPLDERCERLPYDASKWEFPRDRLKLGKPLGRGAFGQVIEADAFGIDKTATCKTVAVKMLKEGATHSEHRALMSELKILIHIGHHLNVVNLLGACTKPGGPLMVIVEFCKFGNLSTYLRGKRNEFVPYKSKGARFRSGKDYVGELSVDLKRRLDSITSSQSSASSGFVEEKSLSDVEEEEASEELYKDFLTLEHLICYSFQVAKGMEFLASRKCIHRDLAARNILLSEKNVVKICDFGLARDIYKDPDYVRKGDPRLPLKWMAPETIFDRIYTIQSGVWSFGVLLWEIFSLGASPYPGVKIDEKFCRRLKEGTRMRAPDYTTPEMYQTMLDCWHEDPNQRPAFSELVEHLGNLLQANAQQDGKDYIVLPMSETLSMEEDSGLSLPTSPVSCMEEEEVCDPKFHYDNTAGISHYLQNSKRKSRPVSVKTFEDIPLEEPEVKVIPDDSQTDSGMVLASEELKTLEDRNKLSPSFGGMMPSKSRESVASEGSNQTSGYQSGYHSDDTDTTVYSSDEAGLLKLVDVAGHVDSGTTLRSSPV
UniProt P14635, whole entry partner: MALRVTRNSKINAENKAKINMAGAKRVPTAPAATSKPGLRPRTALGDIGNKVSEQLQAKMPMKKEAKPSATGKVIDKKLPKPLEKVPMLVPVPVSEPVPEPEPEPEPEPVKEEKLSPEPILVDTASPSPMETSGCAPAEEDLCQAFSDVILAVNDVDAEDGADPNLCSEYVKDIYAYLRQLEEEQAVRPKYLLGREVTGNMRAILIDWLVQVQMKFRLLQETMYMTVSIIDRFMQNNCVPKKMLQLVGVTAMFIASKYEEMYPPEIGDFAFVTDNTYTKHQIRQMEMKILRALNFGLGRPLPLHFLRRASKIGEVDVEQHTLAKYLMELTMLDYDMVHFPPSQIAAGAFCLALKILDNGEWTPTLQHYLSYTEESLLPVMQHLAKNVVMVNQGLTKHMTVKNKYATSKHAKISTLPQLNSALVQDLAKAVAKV

Assays:
[1] = target: CDK1 (cyclin dependent kinase 1) / cyclin B (Homo sapiens, UniProt P06493); test: CDK1 kinase assay; type: biochemical; conditions: read-out: CDK IC50; Tables 1-3; >10 or >100 = no 50% inhibition at highest dose tested
[2] = target: VEGF-R (vascular endothelial growth factor receptor-2) (Rattus norvegicus, UniProt O08775); test: VEGF-R screening assay (33P FlashPlate kinase assay); type: biochemical; conditions: read-out: VEGF-R IC50; Tables 1-3; >10 or >100 = no 50% inhibition at highest dose tested

Row | Compound | IC50 [1] | IC50 [2]
1 | Cc1cc(-c2cncc(NCCCO)c2)nc(Nc2cccc(Cl)c2)n1 | > 10 µM | 0.84 µM
2 | CCN(CC)C(=O)Oc1cnccc1-c1cncc(Nc2cccc(Cl)c2)n1 | > 10 µM | –
3 | OCCCNc1ncc(-c2cncc(Nc3cccc(Cl)c3)n2)s1 | 6.15 µM | 0.416 µM
4 | OCCCNc1cncc(-c2cncc(Nc3cccc(Cl)c3)n2)n1 | > 10 µM | 0.372 µM
5 | Clc1cccc(Nc2cncc(-c3cncc(NCC4CCOCC4)c3)n2)c1 | > 10 µM | 0.475 µM
6 | OCCCNc1cncc(-c2ncc(Nc3cccc(Cl)c3)cn2)c1 | > 10 µM | > 10 µM
7 | OCCCNc1cncc(-c2cc(Nc3cccc(Cl)c3)ncn2)c1 | – | > 10 µM
8 | OCCCNc1cncc(-c2ncncc2Nc2cccc(Cl)c2)c1 | > 10 µM | > 10 µM
9 | Oc1cnccc1-c1cncc(Nc2cccc(Cl)c2)n1 | > 10 µM | > 10 µM
10 | OCCCNc1cc(-c2cncc(Nc3cccc(Cl)c3)n2)ccn1 | 0.5 µM | 0.5 µM
